The assay has as its target Neuronal acetylcholine receptor subunit alpha-7 (Homo sapiens, UniProt P36544). In words: Antagonist activity at human alpha7 nAChR expressed in Xenopus oocyte assessed as inhibition of ACh-induced current at 10 uM after 30 secs by electrophysiological assay. Format: functional.

The chains behind the UniProt entries cited, without tags or fusion partners. Residues count along the entry.
UniProt P36544, 23-502 limits assumed: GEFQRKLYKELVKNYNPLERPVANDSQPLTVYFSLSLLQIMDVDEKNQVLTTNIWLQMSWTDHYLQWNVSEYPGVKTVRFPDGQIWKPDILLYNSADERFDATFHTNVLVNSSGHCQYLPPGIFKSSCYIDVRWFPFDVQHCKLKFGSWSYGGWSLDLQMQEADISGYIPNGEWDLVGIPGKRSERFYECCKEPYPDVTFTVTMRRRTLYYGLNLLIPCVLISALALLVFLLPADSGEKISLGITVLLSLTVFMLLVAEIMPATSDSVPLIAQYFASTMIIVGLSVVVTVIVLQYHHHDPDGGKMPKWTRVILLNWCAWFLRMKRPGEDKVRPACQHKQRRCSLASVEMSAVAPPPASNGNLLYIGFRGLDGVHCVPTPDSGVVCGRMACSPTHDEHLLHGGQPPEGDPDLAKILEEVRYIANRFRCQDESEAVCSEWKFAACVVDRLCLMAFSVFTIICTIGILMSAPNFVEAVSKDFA

Some of these compounds have results that are not shown, active ones among them.

Experimental findings from ChEMBL document CHEMBL2062445, “Synthesis and nicotinic receptor activity of chemical space analogues of N-(3R)-1-azabicyclo[2.2.2]oct-3-yl-4-chlorobenzamide (PNU-282,987) and 1,4-diazabicyclo[3.2.2]nonane-4-carboxylic acid 4-bromophenyl ester (SSR180711)” (J Med Chem, 2012) are described below.

In general, inhibition refers to the drop in the measured response relative to a control, in per cent. Turning to `O=C(N[C@@H]1CCCC[C@H]1N1CCCCC1)c1ccc2ncsc2c1`, the inhibition stood at 79%.
As for `O=C(N[C@@H]1CCCC[C@H]1N1CCCCC1)c1ccc(Cl)cc1`, the figure is 64%.
